According to patent US9987299B2, “Methods of improving RNAi in well-differentiated airway epithelia” (University of Iowa Research Foundation, priority 2014, dated 2018):

What was measured:
Assay type in all cases: cell-based, human
HAE = test: Epithelial cell morphology after PAF-assisted transfection (H&E); conditions: 1 and 10 days after PAF-assisted transfection
Procedure: (§1) A well-studied effect of PAFR stimulation is the activation of mediators that can generate inflammatory responses (38-41). As a mediator of inflammation, PAFR activation can alter tight junction integrity in endothelial and intestinal epithelial cells. We examined the effects of PAF on tight junction integrity in airway epithelia. […] We also examined epithelial cell morphology after PAF-assisted transfection. […] Cytotoxicity was also assessed by lactate dehydrogenase release.

tight junctions of HAE = test: Tight junction integrity in HAE (ZO-1 immunostaining, confocal microscopy)
Procedure: FIG. 8. The effect of PAF on tight junction integrity in HAE. PAF was added to the apical surface at a concentration of 200 nM. The cells were fixed at the end of either 8 hours (a) or 24 hours (b) and then stained for nuclei and tight junctional protein ZO-1. The cells were then visualized by confocal microscopy. In each, top panel: x-y and bottom panel: x-z.
as §1

HAE cells = test: LDH-cytotoxicity colorimetric assay; conditions: PAF treated HAE with DsiRNA transfection
Procedure: The LDH-cytotoxicity colorimetric assay kit (BioVision, Milpitas, Calif.) was used according to the manufacturer's instructions. Experimental and control samples were assayed in triplicate. The samples consisted of HAE cells treated with PAF and transfection with negative control DsiRNA or HPRT DsiRNA. A negative control consisted of culture medium from cells treated with DsiRNA but not PAF. The positive control medium came from cells exposed to Triton x-100 (1%) both apically and basolaterally for 30 minutes at 37° C. After the treatment period, 100 μl of culture media was transferred into an optically clear 96-well plate and an equal volume of reaction mixture added to each well and incubated for up to 30 minutes at room temperature. The absorbance was measured at 495 nm using a microplate reader (VERSAmax, Molecular Devices, Sunnyvale, Calif.). The background value was subtracted and the percentage cytotoxicity was calculated using the formula: (Test sample-Negative control)/(Positive control-Negative control)*100.

platelet activating factor [PAF]
cell morphology compared to control treated epithelium (H&E) (HAE): no changes in cell morphology | tight junction morphology (ZO-1 immunostaining) (tight junctions of HAE; 24 hour of PAF treatment): significant alterations in tight junction morphology | tight junction morphology (ZO-1 immunostaining) (tight junctions of HAE; PAF on apical and basolateral surfaces for 8 hours): no alteration of tight junction morphology | tight junction integrity (tight junctions of HAE; long-term PAF treatment (greater than 24 hours)): reduced tight junction integrity | cytotoxicity by lactate dehydrogenase release (HAE cells): minimal evidence of cytotoxicity
